Patent US20140171466A1, “PAIN MANAGEMENT IN SICKLE CELL ANEMIA” (priority 2012, published 2014)

Amino acid sequences for entries named in this document (tags omitted). A change or cut given only in a name is not applied to a line headed by its entry.
UniProt P41145: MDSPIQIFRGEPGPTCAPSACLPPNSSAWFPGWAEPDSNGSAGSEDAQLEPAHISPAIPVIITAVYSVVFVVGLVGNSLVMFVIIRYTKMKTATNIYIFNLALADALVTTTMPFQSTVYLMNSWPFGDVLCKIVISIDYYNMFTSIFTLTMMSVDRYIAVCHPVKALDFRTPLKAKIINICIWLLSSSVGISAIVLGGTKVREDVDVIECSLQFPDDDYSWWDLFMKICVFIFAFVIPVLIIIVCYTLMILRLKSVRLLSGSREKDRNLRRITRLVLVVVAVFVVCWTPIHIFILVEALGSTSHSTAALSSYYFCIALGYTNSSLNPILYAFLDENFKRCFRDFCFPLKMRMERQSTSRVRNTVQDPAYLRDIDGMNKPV
UniProt P41146: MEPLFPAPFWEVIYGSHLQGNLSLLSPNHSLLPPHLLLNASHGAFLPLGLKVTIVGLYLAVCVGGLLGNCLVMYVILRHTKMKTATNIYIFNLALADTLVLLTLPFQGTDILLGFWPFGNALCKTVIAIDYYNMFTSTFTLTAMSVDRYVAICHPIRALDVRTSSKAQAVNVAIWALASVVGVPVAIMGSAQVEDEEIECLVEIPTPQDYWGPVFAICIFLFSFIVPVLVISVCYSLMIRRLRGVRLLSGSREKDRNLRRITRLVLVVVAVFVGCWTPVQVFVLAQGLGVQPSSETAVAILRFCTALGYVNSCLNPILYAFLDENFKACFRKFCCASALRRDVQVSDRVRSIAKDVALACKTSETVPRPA
UniProt P35372, whole entry, looked up: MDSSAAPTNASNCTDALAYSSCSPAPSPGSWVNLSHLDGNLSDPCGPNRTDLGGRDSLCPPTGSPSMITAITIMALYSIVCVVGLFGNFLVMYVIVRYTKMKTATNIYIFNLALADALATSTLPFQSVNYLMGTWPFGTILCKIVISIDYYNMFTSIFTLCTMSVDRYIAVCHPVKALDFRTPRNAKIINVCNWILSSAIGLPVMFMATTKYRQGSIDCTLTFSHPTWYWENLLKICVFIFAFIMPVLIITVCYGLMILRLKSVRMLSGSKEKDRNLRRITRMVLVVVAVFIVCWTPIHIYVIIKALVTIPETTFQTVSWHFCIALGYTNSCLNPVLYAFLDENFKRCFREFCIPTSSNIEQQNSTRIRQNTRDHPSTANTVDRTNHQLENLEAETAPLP

Columns and labels:
κ receptors [1] = biological target: T1, κ receptors (Homo sapiens, UniProt P41145); experiment: Receptor binding K (Table 1); details: read-out: Receptor Binding Ki (nM) K
κ receptors [2] = biological target: T1, κ receptors; experiment: [35S]GTPγS binding assay K; details: for EC50: read-out: [35S]GTPγS K EC50
NOP receptor [3] = biological target: T2, NOP receptor (Homo sapiens, UniProt P41146); details: cited from earlier work
δ [4] = biological target: T3, δ (Homo sapiens, UniProt P41143); details: read-out: δ Ki; cited from earlier work
mu [5] = biological target: T4, mu (Homo sapiens, UniProt P35372); details: read-out: mu Ki; cited from earlier work
δopioid receptor = δopioid receptor (Homo sapiens, UniProt P41143); details: read-out: Ki at the δ opioid receptor; cited from earlier work
NOP receptor [6] = biological target: T2, NOP receptor; details: read-out: EC50, stimulation of [35S]GTPγS binding to the NOP receptor; cited from earlier work
NOP receptor [7] = biological target: T2, NOP receptor; details: read-out: binding affinity Ki at the NOP receptor; cited from earlier work
κ opioid receptor = κ opioid receptor (Homo sapiens, UniProt P41145); details: read-out: Ki at the κ opioid receptor; cited from earlier work
NOP receptor [8] = biological target: T2, NOP receptor; experiment: [35S]GTPγS binding assay NOP; details: for EC50: read-out: [35S]GTPγS NOP EC50
[9] = tested on: HbSS-BERK and HbAA-BERK mice; experiment: Paw withdrawal frequency (PWF) to 9.8 mN von Frey monofilament; details: for PWF (9.8 mN von Frey) vs baseline / PWF vs vehicle-treated mice: no H/R; for PWF vs vehicle-treated mice: up to 24 h after injection
[10] = tested on: HbSS-BERK and HbAA-BERK mice; experiment: Withdrawal responses to cold (cold plate); details: for PWF to cold vs immediately after H/R / PWL to cold vs immediately after H/R: injected following H/R; for cold sensitivity (PWL and PWF to cold): no H/R
[11] = tested on: HbSS-BERK and HbAA-BERK mice; experiment: Dorsal cutaneous blood flow, laser doppler velocimetry; details: for dorsal cutaneous blood flow: no H/R
[12] = tested on: HbSS-BERK and HbAA-BERK mice; experiment: Grip force (deep tissue hyperalgesia); details: for grip force vs immediately after H/R: injected following H/R
[13] = tested on: HbSS-BERK and HbAA-BERK mice; experiment: Dorsal skin temperature, infrared thermography
[14] = tested on: HbSS-BERK and HbAA-BERK mice; experiment: Mechanical paw withdrawal threshold, von Frey filaments; details: for mechanical withdrawal threshold vs baseline: after injection
mice = experiment: Catalepsy (time spent on the bar)
[15] = tested on: HbSS-BERK and HbAA-BERK mice; experiment: Withdrawal responses to heat (PWL, Hargreaves test); details: for sensitivity to heat: no H/R; for PWL to heat vs baseline / PWL to heat vs immediately after H/R: treated following H/R
κ receptors [16] = biological target: T1, κ receptors; details: cited from earlier work
mu [17] = biological target: T4, mu; details: read-out: Binding affinity Ki mu; cited from earlier work
δ [18] = biological target: T3, δ; details: cited from earlier work
mu [19] = biological target: T4, mu; details: cited from earlier work
[20] = HbSS-BERK mice, injected following H/R
[21] = HbAA-BERK mice, no H/R, up to 180 min
[22] = HbSS-BERK mice, following H/R, up to 24 h

`O=C1Cc2ccccc2N1C1CCN(C2CCC3CCCc4cccc2c43)CC1` (stereo not shown) showed a Ki (κ receptors [1]) of 681 nM and an EC50 (κ receptors [2]) of over 10000 nM.
For `CC(C)C1CCC(N2CCC(O)(c3cccc(C(F)(F)F)c3)CC2)CC1` (stereo not shown), the Selectivity mu/NOP (NOP receptor [3]) is given as 3, the Ki (NOP receptor [3]; read-out: NOP Ki, recombinant HEK-293 cells) is given as 12 nM and the Ki (δ [4]) is given as 5670 nM. The Ki (mu [5]) was 36 nM.
In the case of `NC(=O)[C@@]1(c2ccccc2)C[C@H]2CC[C@@H](C1)N2C(c1ccccc1Cl)c1ccccc1Cl`, the Ki (δopioid receptor) is given as 2330 nM, the EC50 (NOP receptor [6]) is given as 6 nM and the Ki (NOP receptor [7]) is given as 1.7 nM. For the same compound, the Ki (κ opioid receptor) was 268 nM.
For `CC(C)C1CCC(N2CCC(N3C(=O)Cc4ccccc43)CC2)CC1` (stereo not shown), the EC50 (NOP receptor [8]) was 26 nM and the EC50 (κ receptors [2]) was over 10000 nM.
Compound `CCC1C(=O)N(C2CCN(C3CCC(C(C)C)CC3)CC2)c2ccccc21` (stereo not shown) has a Ki (κ receptors [1]) of 82.4 nM and an EC50 (κ receptors [2]) of over 10000 nM.
In the case of `O=C1Cc2ccccc2N1C1CCN(C2CCCCCCC2)CC1` [Compound 3, 1-(1-cyclooctylpiperidin-4-yl)-indolin-2-one], the “PWF (9.8 mN von Frey) vs immediately after H/R” value ([9]; HbAA-BERK mice, injected following H/R) is reported as “remained lower up to 24 h as compared to H/R and returned to baseline at 240 minutes”, the “PWF (9.8 mN von Frey) vs baseline” value ([9]; HbAA-BERK mice) is reported as “decreased after 30 min of injection and remained decreased after 24 h” and the “PWF vs vehicle-treated mice” value ([9]; HbAA-BERK mice) is reported as “remained significantly decreased”. For the same compound, the “PWF (9.8 mN von Frey) vs baseline and immediately after H/R” value [9, 20] was “significantly decreased after 30 min of injection of Compound 3 and remained decreased after 24 h”, the “PWF (9.8 mN von Frey) vs baseline” value ([9]; HbSS-BERK mice) was “decreased after 30 min of injection and remained decreased after 24 h” and the “PWF vs vehicle-treated mice” value ([9]; HbSS-BERK mice) was “remained significantly decreased”. For the same compound, the “PWF to cold vs immediately after H/R” value ([10]; HbAA-BERK mice) was “decrease in PWF to cold from 30 min to 24 h”, the “PWL to cold vs immediately after H/R” value ([10]; HbAA-BERK mice) was “significant increase in PWL to cold from 30 min to 90 min” and the “cold sensitivity (PWL and PWF to cold)” value ([10]; HbAA-BERK mice) was “significant decrease in cold sensitivity following AT-200 treatment from 30 min to 180 min”. For the same compound, the “PWF to cold vs immediately after H/R” value ([10]; HbSS-BERK mice) was “decrease in PWF to cold up to 24 h”, the “PWL to cold vs immediately after H/R” value ([10]; HbSS-BERK mice) was “sustained increase in PWL to cold” and the “cold sensitivity (PWL and PWF to cold)” value ([10]; HbSS-BERK mice) was “significant decrease in cold sensitivity following AT-200 treatment from 30 min to 180 min”. The “dorsal cutaneous blood flow” value ([11]; HbAA-BERK mice) was “Neither HbSS-BERK nor HbAA-BERK mice showed any changes”, the “dorsal cutaneous blood flow vs immediately after H/R injury” value [11, 20] was “significant decrease in blood flow after 60 min to 24 h after injection” and the “dorsal cutaneous blood flow” value ([11]; HbSS-BERK mice) was “Neither HbSS-BERK nor HbAA-BERK mice showed any changes”. The EC50 (κ receptors [2]) was 276 nM, the “grip force vs immediately after H/R” value ([12]; HbAA-BERK mice) was “significant increase in grip force at 30 min and remained increased up to 24 h” and the “grip force vs vehicle-treated mice” value [12, 21] was “remained significantly increased”. The “grip force vs vehicle-treated mice” value [12, 22] was “remained significantly increased”, the “grip force vs immediately after H/R” value ([12]; HbSS-BERK mice) was “remained increased in AT-200-treated mice up to 24 h and returned to baseline at 240 min of injection” and the “grip force vs baseline” value ([12]; HbSS-BERK mice, no H/R) was “increased after 30 min of injection and remained increased until 180 min”. For the same compound, the “grip force vs vehicle-treated mice” value ([12]; HbSS-BERK mice, no H/R, up to 180 min) was “remained significantly increased”, the dorsal skin temperature ([13]; HbAA-BERK mice, no H/R) was “Neither treatment group in the HbAA-BERK mice showed any changes” and the “skin temperature vs baseline and immediately after H/R injury” value ([13]; HbAA-BERK mice, treated following H/R) was “did not exhibit any changes in skin temperature as compared to baseline and immediately after H/R injury, except for at 24 h”. The “dorsal skin temperature vs baseline” value ([13]; HbSS-BERK mice, no H/R) was “significant decrease in dorsal skin temperature 24 h after injection”, the “skin temperature vs immediately after H/R” value ([13]; HbSS-BERK mice, treated following H/R) was “significant decrease in skin temperature from 30 min to 24 h after treatment” and the “withdrawal threshold vs vehicle-treated mice” value ([14]; HbAA-BERK mice, following H/R, up to 90 min) was “remained significantly increased”. For the same compound, the “withdrawal threshold vs baseline” value ([14]; HbAA-BERK mice, injected following H/R injury) was “increase in withdrawal threshold occurred in HbAA-BERK following 30 min of injection, but returned to baseline after 240 min”, the “mechanical withdrawal threshold vs baseline” value ([14]; HbAA-BERK mice, no H/R) was “increase in withdrawal threshold occurred in HbAA-BERK following 90 min of injection, but returned to baseline after 24 h” and the “withdrawal threshold vs vehicle-treated mice” value [14, 21] was “remained significantly increased”. For the same compound, the “withdrawal threshold vs vehicle-treated mice” value [14, 22] was “remained significantly increased”, the “mechanical withdrawal threshold vs baseline and immediately after H/R” value ([14]; HbSS-BERK mice, injected following H/R injury) was “significant increase in mechanical withdrawal threshold obtained using von Frey monofilaments after 30 min of injection and remained increased after 24 h” and the “mechanical withdrawal threshold vs baseline” value ([14]; HbSS-BERK mice, no H/R) was “increased after 30 min of injection of AT-200 and remained increased after 24 h”. For the same compound, the “withdrawal threshold vs vehicle-treated mice” value ([14]; HbSS-BERK mice, no H/R, up to 24 h) was “remained significantly increased”, the “time spent on the bar vs vehicle-treated mice” value (mice; at any time points) was “no significant difference” and the catalepsy (mice; mice injected with AT-200) was “did not exhibit catalepsy”. For the same compound, the sensitivity to heat ([15]; HbAA-BERK mice) was “only to 180 min in HbAA-BERK”, the “PWL to heat vs baseline” value ([15]; HbAA-BERK mice) was “returned to baseline at 24 h” and the “PWL to heat vs immediately after H/R” value ([15]; HbAA-BERK mice) was “significant increase in PWL to heat following AT-200 treatment from 30 min to 24 h”. The sensitivity to heat ([15]; HbSS-BERK mice) was “Sustained decrease in sensitivity to heat was observed in HbSS-BERK from 30 min to 24 h”, the “PWL to heat vs baseline” value ([15]; HbSS-BERK mice) was “remained increased up to 24 h as compared to baseline” and the “PWL to heat vs immediately after H/R” value ([15]; HbSS-BERK mice) was “significant increase in PWL to heat following AT-200 treatment from 30 min to 24 h”.
For `CC1(N2CCC(n3c([C@@H]4CCCNC4)nc4ccccc43)CC2)CCCCCCC1` [Compound 10, 1-[1-(1-methylcyclooctyl)-4-piperidinyl]-2-[(3R)-3-piperidinyl]-1H-benzimidazole], the “Emax (%) κ” value (κ receptors [16]; percentage of maximal response of enadoline) is listed as 79%, the EC50 (κ receptors [16]; read-out: Functional activity [35S]GTPγS EC50 κ, HEK-293 cells) is listed as 4700 nM and the Ki (mu [17]) is listed as 1.05 nM. For the same compound, the “Emax (%) δ” value (δ [18]; percentage of maximal response of DPDPE) was 43%, the EC50 (δ [18]; read-out: Functional activity [35S]GTPγS EC50 δ, CHO-K1 cells) was 80 nM and the “Emax (%) mu” value (mu [19]; percentage of maximal response of DAMGO) was 30%. The EC50 (mu [19]; read-out: Functional activity [35S]GTPγS EC50 mu, CHO-K1 cells) was 34 nM.
For `CC(C)[C@H]1CC[C@@H](N2CCC3(CC2)C(=O)N(CC(=O)OC(C)(C)C)CN3c2ccccc2)CC1`, the “[35S]GTPγS NOP % Stim” value (NOP receptor [8]; full agonist N/OFQ as standard) was 81 ± 13%, the EC50 (NOP receptor [8]) was 19 nM and the Ki (κ receptors [1]) was 270 nM. The “[35S]GTPγS K % Stim” value (κ receptors [2]) was 11 ± 2% and the EC50 (κ receptors [2]) was 271 nM.
In the case of `O=C1Cc2ccccc2N1C1CCN(C2C3CCCC2CCC3)CC1` (stereo not shown), the EC50 (NOP receptor [8]) is reported as 28 nM and the EC50 (κ receptors [2]) is reported as over 10000 nM.

Read-outs that look alike come from different tables or passages of the source.
